Amino acid sequences for entries named in this document (tags omitted). A change or cut given only in a name is not applied to a line headed by its entry.
UniProt P43490: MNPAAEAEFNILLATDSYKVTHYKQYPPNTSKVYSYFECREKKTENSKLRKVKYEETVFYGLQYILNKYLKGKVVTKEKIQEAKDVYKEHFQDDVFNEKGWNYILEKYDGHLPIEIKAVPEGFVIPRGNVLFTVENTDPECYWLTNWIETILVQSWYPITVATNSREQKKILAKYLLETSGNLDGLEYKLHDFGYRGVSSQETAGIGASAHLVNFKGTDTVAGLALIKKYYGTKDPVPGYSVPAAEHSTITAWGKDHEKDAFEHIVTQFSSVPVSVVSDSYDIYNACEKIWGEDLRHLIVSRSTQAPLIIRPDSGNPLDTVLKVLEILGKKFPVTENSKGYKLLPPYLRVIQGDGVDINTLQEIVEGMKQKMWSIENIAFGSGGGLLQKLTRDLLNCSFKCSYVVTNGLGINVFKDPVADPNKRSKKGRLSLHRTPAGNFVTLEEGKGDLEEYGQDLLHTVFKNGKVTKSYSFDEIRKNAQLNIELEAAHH

In US10730889B2, “Amido spirocyclic amide and sulfonamide derivatives” (Forma TM, LLC, priority 2012, dated 2020):

Assays:
A2780 cells = assay: In-vitro cell proliferation assay (SRB, 72 hours); assay type: cell-based; details: Homo sapiens, A2780, 72 h
NAMPT = NAMPT (Homo sapiens (Human), UniProt P43490); assay: Biochemical inhibition assay (NAMPT enzymatic reaction, NMN quantified by mass spectrometry)

Compound | IC50 (A2780 cells) [nM] | IC50 (NAMPT) [nM]
Cc1cc(C(=O)N2CCC3(CC2)CC3CNC(=O)c2cc3ccncc3o2)n(C)n1 (stereo not drawn) [Example 116, N-[[6-(2,5-dimethylpyrazole-3-carbonyl)-6-azaspiro[2.5]octan-2-yl]methyl]furo[2,3-c]pyridine-2-carboxamide] | 370 | 365
O=C(NCC1CC12CCN(C(=O)C1CC1)CC2)c1cc2ccncc2o1 (stereo not drawn) [Example 130, N-[[6-(cyclopropanecarbonyl)-6-azaspiro[2.5]octan-2-yl]methyl]furo[2,3-c]pyridine-2-carboxamide] | 2000 | 2000
Cc1cccc(C(=O)N2CCC3(CC2)CC3CNC(=O)c2cc3ccncc3o2)n1 (stereo not drawn) [Example 234, N-[(6-(6-methylpyridine-2-carbonyl)-6-azaspiro[2.5]octan-2-yl]methyl]furo[2,3-c]pyridine-2-carboxamide] | 164 | 161
Cc1nc(COc2ccc(C(=O)N3CCC4(CC3)CC4CNC(=O)c3cc4ccncc4o3)cc2)no1 (stereo not drawn) [Example 244, N-[[6-[4-[(5-methyl-1,2,4-oxadiazol-3-yl)methoxy]benzoyl]-6-azaspiro[2.5]octan-2-yl]methyl]furo[2,3-c]pyridine-2-carboxamide] | 26.1 | 26.4
Cc1nc2cc(C(=O)N3CCC4(CC3)CC4CNC(=O)c3cc4ccncc4o3)ccc2[nH]1 (stereo not drawn) [Example 263, N-[[6-(2-methyl-1H-benzimidazole-5-carbonyl)-6-azaspiro[2.5]octan-2-yl]methyl]furo[2,3-c]pyridine-2-carboxamide] | 25.4 | 26.5
O=C(NCC1CC12CCN(C(=O)c1cccc3cnccc13)CC2)c1cc2ccncc2o1 (stereo not drawn) [Example 268, N-[[6-(isoquinoline-5-carbonyl)-6-azaspiro[2.5]octan-2-yl]methyl]furo[2,3-c]pyridine-2-carboxamide] | 71.9 | 69.1
O=C(NCC1CC12CCN(C(=O)c1ccc3ncccc3n1)CC2)c1cc2ccncc2o1 (stereo not drawn) [Example 270, N-[[6-(1,5-naphthyridine-2-carbonyl)-6-azaspiro[2.5]octan-2-yl]methyl]furo[2,3-c]pyridine-2-carboxamide] | 19.2 | 19.2
CC(=O)CCC(=O)N1CCC2(CC1)CC2CNC(=O)c1cc2ccncc2o1 (stereo not drawn) [Example 282, N-[[6-(4-oxopentanoyl)-6-azaspiro[2.5]octan-2-yl)methyl]furo[2,3-c]pyridine-2-carboxamide] | 2000 | 2000
CC(C)(O)CCC(=O)N1CCC2(CC1)CC2CNC(=O)c1cc2ccncc2o1 (stereo not drawn) [Example 283, N-[[6-(4-hydroxy-4-methyl-pentanoyl)-6-azaspiro[2.5]octan-2-yl]methyl]furo[2,3-c]pyridine-2-carboxamide] | 362 | 362
CC(C)(O)CC(=O)N1CCC2(CC1)CC2CNC(=O)c1cc2ccncc2o1 (stereo not drawn) [Example 284, N-[[6-(3-hydroxy-3-methyl-butanoyl)-6-azaspiro[2.5]octan-2-yl]methyl]furo[2,3-c]pyridine-2-carboxamide] | 105 | 106
O=C(NCC1CC12CCN(C(=O)Cc1ccccn1)CC2)c1cc2cnccc2[nH]1 (stereo not drawn) [Example 285, N-[[6-[2-(2-pyridyl)acetyl]-6-azaspiro[2.5]octan-2-yl]methyl]-1H-pyrrolo[3,2-c]pyridine-2-carboxamide] | 2000 | 2000
O=C(Cc1cnccn1)N1CCC2(CC1)CC2CNC(=O)N1Cc2ccncc2C1 (stereo not drawn) [Example 287, N-[[6-(2-pyrazin-2-ylacetyl)-6-azaspiro[2.5]octan-2-yl]methyl]-1,3-dihydropyrrolo[3,4-c]pyridine-2-carboxamide] | 24.5 | 24.5
O=C(CCc1nccs1)N1CCC2(CC1)CC2CNC(=O)N1Cc2ccncc2C1 (stereo not drawn) [Example 288, N-[[6-(3-thiazol-2-ylpropanoyl)-6-azaspiro[2.5]octan-2-yl]methyl]-1,3-dihydiopyrrolo[3,4-c]pyridine-2-carboxamide] | 60.6 | 60.6
O=C(COc1ccccc1)N1CCC2(CC1)CC2CNC(=O)N1Cc2ccncc2C1 (stereo not drawn) [Example 289, N-[[6-(2-phenoxyacetyl)-6-azaspiro[2.5]octan-2-yl]methyl]-1,3-dihydropyrrolo[3,4-c]pyridine-2-carboxamide] | 9.99 | 9.99
Cc1n[nH]c(C)c1C(=O)N1CCC2(CC1)CC2CNC(=O)N1Cc2ccncc2C1 (stereo not drawn) [Example 292, N-[[6-(3,5-dimethyl-1H-pyrazole-4-carbonyl)-6-azaspiro[2.5]octan-2-yl]methyl]-1,3-dihydropyrrolo[3,4-c)pyridine-2-carboxamide] | 693 | 693
Cc1nn(C)c(C)c1C(=O)N1CCC2(CC1)CC2CNC(=O)c1cc2cnccc2[nH]1 (stereo not drawn) [Example 293, N-[[6-(1,3,5-trimethylpyrazole-4-carbonyl)-6-azaspiro[2.5]octan-2-yl]methyl]-1H-pyrrolo[3,2-c]pyridine-2-carboxamide] | 59.3 | 59.3
CC(=O)N1CCC(n2cc(C(=O)N3CCC4(CC3)CC4CNC(=O)c3cc4ccncc4o3)cn2)C1 (stereo not drawn) [Example 304, N-[[6-[1-(1-acetylpyrrolidin-3-yl)pyrazole-4-carbonyl]-6-azaspiro[2.5]octan-2-yl]methyl]furo[2,3-c]pyridine-2-carboxamide] | 32.9 | 31.3
O=C(Cc1nccs1)N1CCC2(CC1)CC2CNC(=O)N1Cc2ccncc2C1 (stereo not drawn) [Example 359, N-[[6-(2-thiazol-2-ylacetyl)-6-azaspiro[2.5]octan-2-yl]methyl]-1,3-dihydropyrrolo[3,4-c]pyridine-2-carboxamide] | 21.7 | 20.8
